Source: US20060252723A1, “Combined therapy utilizing reduction of DNA methyltransferase expression and/or activity and interferon” (Methylgene, Inc. The Cleveland Clinic Foundation, priority 2005, published 2006)

B1: IFN β: interferon beta (IFN β 1a) (protein, UniProt P01574 22-187, looked up)
Interferon beta: MSYNLLGFLQRSSNFQCQKLLWQLNGRLEYCLKDRMNFDIPEEIKQLQQFQKEDAALTIYEMLQNIFAIFRQDSSSTGWNETIVENLLANVYHQINHLKTVLEEKLEKEDFTRGKLMSSLHLKRYYGRILHYLKAKEYSHCAWTIVRVEILRNFYFINRLTGYLRN

What was measured:
Assay type in all cases: cell-based, human
ACHN cells [1] = experiment: cell cycle analysis, propidium iodide staining of nuclei; conditions: IFN 50 U/ml over 48 hr; 48 hr after IFN treatment
Method: To gain some insight into which genes to focus, a cell cycle analysis was undertaken using propidium iodide staining of nuclei. […] Analysis was performed by flow cytometry using Modfit software (Verity software house, Topsham, ME).

RASSF1A = experiment: RT-PCR for RASSF1A; conditions: IFN 50 U/ml over 48 hr, DNMT1 AS pretreated ACHN cells
Method: To assess reactivation, RT-PCR was performed with primers that amplified RASSF1 variants regulated by a promoter that has been described as hypermethylated in cancer. Primers were [NT] (sense) (SEQ ID NO:45) and [NT] (antisense) (SEQ ID NO:46). Settings used were 95° C.-4 min, (95° C.-1 min, 52° C.-30 sec, 72° C.-30 sec for 30 to 35 cycles), 72° C.-4 min. GAPDH was amplified with the settings 95° C.-4 min, (95° C.-45 sec, 55° C.-30 sec, 72° C.-50 sec for 15 to 25 cycles), 72° C.-4 min. GAPDH primers were [NT] (sense) (SEQ ID NO:47) and [NT] (antisense) (SEQ ID NO:48). For sequencing of full length RASSF1 cDNA RT-PCR with primers (5' to 3') [NT] (sense) (SEQ ID NO:49) and [NT] (antisense) (SEQ ID NO:50) was performed using proofreading platinum Pfx polymerase (Invitrogen, Carlsbad, Calif.) and the following settings: Denaturation at 95° C. for 4 min followed by 30 cycles of denaturation at 95° C. for 45 sec, annealing at 58° C. for 30 sec, and extension at 68° C. for 3 min followed by final extension at 68° C. for 8 min. Products were cloned into Zero Blunt cloning vector for sequencing and then into pcDNA3.1 for overexpression.

RASSF1A protein = experiment: immunoblotting for RASSF1A; conditions: IFN 50 U/ml over 48 hr
ACHN cells [2] = experiment: real-time RT-PCR for stat1, stat2 genes; conditions: mismatched control treated cells, 50 U/ml IFN-β over 16 hr
[3] = mismatch oligonucleotide pretreated ACHN cells

Molecule	cell cycle distribution (ACHN cells [1])	transcription of RASSF1A, semi-quantitative RT-PCR (RASSF1A)	RASSF1A protein (RASSF1A protein; [3])	stat1 expression increase (ACHN cells [2])	stat2 expression increase (ACHN cells [2])	RASSF1A protein (RASSF1A protein; DNMT1 AS pretreated ACHN cells)
IFN α: interferon alpha (IFN alpha 2b)	accumulation of cells in S phase and G2/M	not affected	not			
B1	accumulation of cells in S phase and G2/M	not affected	not	2.24 fold	6.94 fold	increased RASSF1A protein
